Assay [1] relates to C/EBPβ-AEP/δ-secretase pathway. In words: FSH stimulation of SH-SY5Y cells (Western, qPCR, AEP activity). The assay is classed as cell-based, human. On the procedure:
The human neuroblastoma cell line SH-SY5Y, obtained from ATCC, was cultured in DMEM/F12 with 10% fetal bovine serum (FBS), penicillin (100 units/ml) and streptomycin (100 μg/ml). SH-SY5Y transfection was performed using Lipofectamine 3000 (Invitrogen). Primary culture of rat cortical neurons was described earlier. LV-shCebpb-GFP, LV-GFP and AAV-AEP^C189S were packaged by Viral Vector Core (VVC) of Emory University. 2 μl of virus solution was added to 1 ml culture medium and applied to primary neuron cultures. Cells were incubated at 37° C. in a humidified atmosphere of 5% CO2.
Tissue homogenates or cell lysates (10 μg) were incubated in 200 μl assay buffer (20 mM citric acid, 60 mM Na2HPO4, 1 mM EDTA, 0.1% CHAPS, and 1 mM DTT, pH 6.0) containing 20 μM δ-secretase substrate, Z-Ala-Ala-Asn-AMC (Bachem). AMC released by substrate cleavage was quantified by measuring at 460 nm in a fluorescence plate reader at 37° C. in kinetic mode.
mRNA levels were analyzed by quantitative PCR (qPCR). Briefly, RNA was isolated by TRIzol (Life Technologies). Reverse transcription was performed with SuperScript III reverse transcriptase (Life Technologies). Gene-specific primers and probes were designed and bought from Taqman (Life Technologies). All qPCR reactions were performed using the ABI 7500-Fast Real-Time PCR System and the Taqman Universal Master Mix Kit (Life Technologies). The relative quantification of gene expression was calculated using the ΔΔCt method.
Cells and brain tissue were washed with ice-cold PBS and lysed in (50 μmM Tris-HCl, pH 7.4, 40 mM NaCl, 1 mM EDTA, 0.5% Triton X-100, 1.5 mM Na3VO4, 50 mM NaF, 10 mM sodium pyrophosphate, 10 mM sodium β-glycerophosphate, supplemented with protease inhibitors cocktail) at 4° C. for 0.5 hours, and centrifuged for 25 min at 15,000 rpm. The supernatant was boiled in SDS loading buffer. After SDS-PAGE, the samples were transferred to a nitrocellulose membrane. The membrane was blocked with TBS containing 5% nonfat milk and 0.1% Tween 20 (TBST) at room temperature for 2 hours, followed by incubation with primary antibody at 4° C. overnight, and with the secondary antibody at room temperature for 2 hours. After washing with TBST, the membrane was developed using the enhanced chemiluminescent (ECL) detection system.
To study whether FSH acts on the brain FSHR to activate the C/EBPβ-AEP/δ-secretase pathway, human recombinant FSH (30 ng/ml) was used to stimulate human neuroblastoma SH-SY5Y cells.

In the next assay the test system is FSHR. In words: Time course of FSH effects on signalling (Western). In kind it is cell-based. An excerpt: Statistics: mean±SEM; three biological replicates; one-way ANOVA; *P<0.05, **P<0.01.
To explore downstream consequences of FSHR stimulation, the effect of FSH on the phosphorylation of ERK1/2, SRPK2 and AKT was studied. Of note, MAPK-induced phosphorylation of residue T188 of C/EBPβ regulates its transcriptional activity (Ramji, D. P. & Foka, P. Biochem J 365, 561-575, (2002)). Likewise, AKT phosphorylates SRPK2, which, in turn, activates AEP by phosphorylating residue S266. […] Inhibitors of each pathway were utilized, including pertussis toxin that decouples the bone and adipose tissue FSHRs from Gααi protein (Liu, P. et al. Nature 546, 107-112, (2017); Sun, L. et al. FSH directly regulates bone mass. Cell 125, 247-260, (2006)). Pertussis toxin inhibited FSH-induced C/EBPβ and AEP activation and AKT phosphorylation (FIG. 2E). […] Furthermore, the AKT inhibitor AKTi-1/2 attenuated the induction by FSH of C/EBPβexpression, AEP cleavage and phosphorylation, and phosphorylation of the downstream target SRPK2, but not ERK1/2 (FIG. 2E). In contrast, while the MEK1 inhibitor PD98059 blocked FSH-induced C/EBPβ, AEP and SRPK2 activation, AKT was unaffected (FIG. 2E).

The subject of a further assay is 3xTg mice. Briefly: FSH injection in ovariectomized, estrogen-replete 3xTg mice. The assay is classed as in vivo, mouse. The method, then:
3xTg mice were ovariectomized at 3 months and supplemented with 17β-estradiol using 90-day-release pellets (E2, 0.36 mg) to render them biochemically eugonadal. The mice were randomly divided to be injected with PBS (OVX+E2+PBS) or recombinant human FSH (5 IU per mouse daily, i.p.) for 3 months (OVX+E2+FSH). N=4, two-tailed Student's t-test, *P<0.05, **P<0.01.
Given that FSH increases serum estrogen, mice were ovariectomized and serum estrogen levels were clamped close to basal (˜75 μg/ml) by subcutaneously implanting 17β-estradiol 90-day-release-pellets (0.36 mg) before FSH (5 IU daily, i.p.) injections for 3 months (FIG. 12A). […] This experiment provides unequivocal evidence that the effect of FSH is independent of estrogen.

The mark [2] stands for this setting: FSH 30 ng/ml, time-dependent, Western.
The mark [3] stands for this setting: estrogen-replete (eugonadal) mice.

Take “FSH: human recombinant follicle-stimulating hormone, a glycoprotein polypeptide hormone”: the “expression of pro-inflammatory cytokines IL1β, IL-6 and TNFα” value in assay [1] (FSH) is on record as “induced”. In addition, the AEP activity result in assay [1] (FSH 30 ng/ml) is “enhanced”. In addition, the “cleavage of APP and Tau to APP^1-585 and Tau^1-368” value in assay [1] (FSH 30 ng/ml, Western) was “cleaved both APP and Tau”. Further, the “Cebpb, Lgmn, App and Mapt mRNA” value in assay [1] (FSH 30 ng/ml, quantitative PCR) was “time-dependent increases”. For the same substance, in assay [1] (setting [2]), the “cleaved (active) AEP” value is listed as “increased”; the “total and phosphorylated C/EBPβ” value is “increased”. In the assay with FSHR (from 5 minutes post-FSH exposure), the “total C/EBPβ, pC/EBPβ, and active AEP” value was “progressively increase”. Besides, in the assay on FSHR (post-FSH exposure), the “NF-κB p65” value is given as “delayed elevation”; the “time of peak ERK1/2, AKT and SRPK2 phosphorylation” value was around 30 min. In addition, in the assay with 3xTg mice (clamped estrogen levels, FSH 5 IU daily i.p., 3 months), the “C/EBPβ and AEP expression, cleavage of APP and Tau, and Tau phosphorylation” value is given as “continued to induce”. In the assay with 3xTg mice (setting [3]), the AEP/δ-secretase activation entry was “induced”; the “Aβ and pTau accumulation” value is “led to Aβ and pTau accumulation”.
